The test has as its system mice. The test is described as follows: Compound screen, tertiary: survival in lethal hypoxia (4% O2). The format is in vivo, mouse (C57BL/6). The following applies: 4% O2 after infusion until subcutaneous temperature 33° C.; test ended at 60 minutes; control typically died within 6-15 minutes.

For the substance cysteamine-5-phosphate sodium salt, the “survival in lethal hypoxia” value is 31 min.

Values taken from patent US8822535B2 (priority 2005, dated 2014).
